Test results taken from patent US12605371B2, “Combination therapy for cancer” (The Board of Trustees of the Leland Stanford Junior …, priority 2020, dated 2026).

Molecular target: thrombin (Mus musculus, UniProt P19221)

correlation (R) of aPTT prolongation and tumor weight (WT mice treated with DE): −0.37 | thrombin activity by aPTT (in words) (blood collected at sacrifice, DE chow): blocked thrombin activity
Structure (SMILES): CCCCCCOC(=O)N=C(N)c1ccc(NCc2nc3cc(C(=O)N(CCC(=O)OCC)c4ccccn4)ccc3n2C)cc1 [DE, dabigatran etexilate]
